Laboratory results taken from US10131663B2, “Chemical compounds” (AstraZeneca AB, priority 2016, dated 2018).
pIC50: −log10 of the molar value.

Chains of the proteins cited; added tags and fusions are not shown. Lines headed by an entry give the natural chain unless they say otherwise; changes in a name come on top. Residues count along the entry.
UniProt Q12809: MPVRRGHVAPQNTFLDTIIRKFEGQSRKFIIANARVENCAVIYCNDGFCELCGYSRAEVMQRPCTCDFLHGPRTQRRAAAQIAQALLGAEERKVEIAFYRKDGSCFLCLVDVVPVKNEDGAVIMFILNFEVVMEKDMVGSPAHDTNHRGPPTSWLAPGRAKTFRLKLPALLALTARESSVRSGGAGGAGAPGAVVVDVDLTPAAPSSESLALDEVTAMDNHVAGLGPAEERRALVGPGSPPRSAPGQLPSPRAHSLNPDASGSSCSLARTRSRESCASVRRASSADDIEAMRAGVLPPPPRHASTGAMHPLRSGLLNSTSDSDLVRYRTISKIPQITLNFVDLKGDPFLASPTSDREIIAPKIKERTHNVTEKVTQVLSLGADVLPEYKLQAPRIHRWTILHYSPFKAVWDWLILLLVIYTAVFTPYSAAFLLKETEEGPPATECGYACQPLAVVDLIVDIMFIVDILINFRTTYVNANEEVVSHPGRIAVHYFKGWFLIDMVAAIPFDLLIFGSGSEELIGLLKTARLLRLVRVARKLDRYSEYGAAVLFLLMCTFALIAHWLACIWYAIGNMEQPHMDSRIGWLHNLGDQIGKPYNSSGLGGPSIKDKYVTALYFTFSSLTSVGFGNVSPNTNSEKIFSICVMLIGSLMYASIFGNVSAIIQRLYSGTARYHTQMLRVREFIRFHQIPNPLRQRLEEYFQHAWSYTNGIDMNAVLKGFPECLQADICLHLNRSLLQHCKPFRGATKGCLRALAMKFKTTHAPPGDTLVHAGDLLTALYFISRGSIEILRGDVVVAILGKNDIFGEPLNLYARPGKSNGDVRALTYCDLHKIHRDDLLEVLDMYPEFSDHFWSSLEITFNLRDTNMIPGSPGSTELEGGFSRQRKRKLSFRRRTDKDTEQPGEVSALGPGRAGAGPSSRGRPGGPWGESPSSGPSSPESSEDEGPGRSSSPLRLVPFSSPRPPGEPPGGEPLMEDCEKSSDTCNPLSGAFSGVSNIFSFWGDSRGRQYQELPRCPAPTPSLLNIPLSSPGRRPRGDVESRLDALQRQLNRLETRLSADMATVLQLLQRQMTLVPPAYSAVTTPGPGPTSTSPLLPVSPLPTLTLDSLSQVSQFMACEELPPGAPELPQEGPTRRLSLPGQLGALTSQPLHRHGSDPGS
UniProt P03372, whole entry: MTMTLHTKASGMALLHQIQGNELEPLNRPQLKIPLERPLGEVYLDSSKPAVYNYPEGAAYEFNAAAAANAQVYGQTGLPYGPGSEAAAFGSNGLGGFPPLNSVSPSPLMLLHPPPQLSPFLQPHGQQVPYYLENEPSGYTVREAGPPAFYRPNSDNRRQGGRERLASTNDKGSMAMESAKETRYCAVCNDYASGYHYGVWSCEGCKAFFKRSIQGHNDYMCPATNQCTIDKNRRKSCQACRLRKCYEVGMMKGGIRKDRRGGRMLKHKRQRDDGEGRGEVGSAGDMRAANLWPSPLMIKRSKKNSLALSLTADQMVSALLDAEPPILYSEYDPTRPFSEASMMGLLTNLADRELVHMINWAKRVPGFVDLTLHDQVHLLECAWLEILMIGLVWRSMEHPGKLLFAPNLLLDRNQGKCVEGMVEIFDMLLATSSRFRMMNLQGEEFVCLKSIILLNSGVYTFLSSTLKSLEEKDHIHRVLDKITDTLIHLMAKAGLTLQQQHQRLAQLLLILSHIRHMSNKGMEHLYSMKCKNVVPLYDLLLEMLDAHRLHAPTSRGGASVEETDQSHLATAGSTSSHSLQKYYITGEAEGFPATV
UniProt P03372, 307-554: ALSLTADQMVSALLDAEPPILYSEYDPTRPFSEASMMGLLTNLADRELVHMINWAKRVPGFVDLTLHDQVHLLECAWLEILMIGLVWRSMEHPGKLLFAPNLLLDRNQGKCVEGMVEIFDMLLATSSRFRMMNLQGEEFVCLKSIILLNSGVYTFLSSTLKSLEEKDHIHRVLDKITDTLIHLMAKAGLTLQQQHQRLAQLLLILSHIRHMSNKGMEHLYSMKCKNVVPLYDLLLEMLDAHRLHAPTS

Legend:
hERG potassium channel = hERG potassium channel (Homo sapiens (Human), UniProt Q12809); assay: hERG binding assay (automated patch clamp, CHO cells); type: cell-based; details: CHO cell line, Nanion Syncropatch 384PE
Protocol: Reagent preparations include: • 1.
Cell preparations: • 1. If using cell culture; cells to be incubated at 30° C. for approximately 4-6 days prior to being used. Day of assay lift cells using accutase and re-suspend in 20 ml cell buffer to a density of 0.8 to 1e6 cells/ml. • 2. If using assay ready cryovials; rapidly thaw two cryovials at 37° C. and slowly pipette into 23 ml external solution • 3.
All compounds were acoustically dispensed in quadruplicate using a Labcyte Echo. […] Fill 384 well medium resistance 4 hole chips with 40 μl external buffer and perfuse internal buffer to the underside of plate. • 2. Dispense 20 μl of cells into each well of the chip followed by 20 μl of seal enhancer. • 3. Remove 40 μl of reagent from each well to the wash station, leaving a residual volume of 40 μl • 4. Dispense 40 μl of reference buffer with a removal step of 40 μl after 3 min, repeat this step. • 5.
hERG-mediated currents were elicited using a voltage step protocol consisting of acontinuous holding voltage of −80 mV, with a 500 ms step to 60 mV followed by a 500 ms step to −40 mV every 15 seconds. hERG current magnitude was measured automatically from the leak-subtracted traces by the Nanion software by taking the peak of the hERG “tail” current at −40 mV every 15 seconds and taking the last three of these responses for each concentration to generate the concentration-effect curve.
Calculation of results is performed using APC package within Genedata. For the routine normalization of well data with Neutral and Inhibitor control well groups as reference, GeneData Assay Analyzer uses the following equation to normalize the signal values to the desired signal range:
[formula] • x is the measured raw signal value of a well • is the median of the measured signal values for the Central Reference (Neutral) wells on a plate • is the median of the measured signal values for the Scale Reference (Inhibitor) wells on a plate • CR is the desired median normalized value for the Central Reference (Neutral) • SR is the desired median normalized value for the Scale Reference (Inhibitor)

[1] = molecular target: Estrogen Receptor (ERα) in MCF-7 cells (Homo sapiens (Human), UniProt P03372); assay: MCF-7 ER down-regulation assay (immuno-fluorescence); type: cell-based
Protocol: The Echo uses acoustic technology to perform direct microplate-to-microplate transfers of DMSO compound solutions to assay plates. […] Cells were fixed at room temperature for 20 mins before being washed two times with 250 μL PBS/Proclin (PBS with a Biocide preservative) using a BioTek platewasher, 40 μL of PBS/Proclin was then added to all wells and the plates stored at 4° C. The fixing method described above was carried out on the Integrated Echo 2 workcell. Immunostaining was performed using an automated AutoElisa workcell. […] The plates were incubated overnight at 4° C. […] The mean total intensity was normalized for cell number giving the total intensity per cell. The data was exported into a suitable software package (such as Origin) to perform curve fitting analysis.

[2] = molecular target: recombinant human Estrogen Receptor alpha ligand binding domain (ER alpha-LBD (GST)) (Homo sapiens (Human), UniProt P03372); assay: ERα binding assay (LanthaScreen TR-FRET competition); details: displacement of Fluormone ES2
Protocol: The ability of compounds to bind to isolated Estrogen Receptor Alpha Ligand binding domain (ER alpha-LBD (GST)) was assessed in competition assays using a LanthaScreen™ Time-Resolved Fluorescence Resonance Energy Transfer (TR-FRET) detection end-point. […] The assay principle is that ER alpha-LBD (GST) is added to a fluorescent ligand to form a receptor/fluorophore complex. A terbium-labelled anti-GST antibody (Product code PV3551) is used to indirectly label the receptor by binding to its GST tag, and competitive binding is detected by a test compound's ability to displace the fluorescent ligand, resulting in a loss of TR-FRET signal between the Tb-anti-GST antibody and the tracer. The assay was performed as follows with all reagent additions carried out using the Beckman Coulter BioRAPTR FRD microfluidic workstation: • 1. Acoustic dispense 120 nL of the test compound into a black low volume 384 well assay plates. • 2. Prepare 1×ER alpha-LBD/Tb-antiGST Ab in ES2 screening buffer and incubate for 15 minutes. • 3. […]
TR-FRET dose response data obtained with each compound was exported into a suitable software package (such as Origin or Genedata) to perform curve fitting analysis. Competitive ER alpha binding was expressed as an IC50 value.

SMILES | pIC50 (hERG potassium channel) | pIC50 [1] | pIC50 [2] | % downregulation (in parentheses) ([1]; maximum downregulation) [%]
COc1cc(NC2CN(CCCF)C2)ccc1[C@@H]1c2ccc3[nH]ncc3c2C[C@@H](C)N1CC(C)F (single isomer, unassigned) [Example 67] | 4.85 | 9.57 | – | –
COc1cc(NC2CN(CCCF)C2)ccc1[C@@H]1c2ccc3[nH]ncc3c2C[C@@H](C)N1CC(C)F (single isomer, unassigned) [Example 68] | < 4.40 | 9.40 | 7.82 | –
CC(F)CN1[C@H](c2ccc(NC3CN(CCCF)C3)cn2)c2ccc3[nH]ncc3c2C[C@H]1C (single isomer, unassigned) [Example 65] | 4.51 | 9.00 | – | –
COC[C@](C)(F)CN1[C@H](c2ccc(OC3CN(CCCF)C3)cc2OC)c2ccc3[nH]ncc3c2C[C@H]1C (single isomer, unassigned) [Example 12] | – | – | – | 83
CC(F)CN1[C@H](c2ccc(NC3CN(CCCF)C3)cn2)c2ccc3[nH]ncc3c2C[C@H]1C (single isomer, unassigned) [Example 66] | 4.59 | 9.36 | 8.21 | –
